## AlphaSeq binding of Ab-95 light chain variants to a spike HR2 peptide

All variants were tested on one target, the spike HR2 peptide PDVDLGDISGINAS (SARS-CoV-2).

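The parent was found by panning a naive human phage display library on the peptide. AAYL52 was designed without a model: most single CDR substitutions and a random sample of double and triple ones. Affinity was read by AlphaSeq, a pooled yeast mating assay with surface-displayed partners. After mating in shaken culture at 30 °C for 16 h, diploids were selected and their barcode pairs sequenced. Read counts were normalised to the haploid input and turned into Kd by a linear fit to BCL2-family pairs of known affinity, for each replicate. The assay was run in three technical replicates.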

Each scFv is VH, a 15-residue (Gly4Ser)3 linker, VL, as in the parent Ab-95, and differs from it in the CDRs of the light chain only.
VH: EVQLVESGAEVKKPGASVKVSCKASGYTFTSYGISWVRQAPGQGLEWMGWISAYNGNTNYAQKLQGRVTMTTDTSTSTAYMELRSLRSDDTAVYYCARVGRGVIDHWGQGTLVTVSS
VL: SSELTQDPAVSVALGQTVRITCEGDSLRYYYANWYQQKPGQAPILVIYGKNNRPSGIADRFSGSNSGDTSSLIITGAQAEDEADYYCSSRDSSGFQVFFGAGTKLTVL

The parent's light chain CDRs are EGDSLRYYYAN, GKNNRPS, SSRDSSGFQVF; each variant's own CDRs replace them letter for letter.
This list gathers variants with a substitution at G49 (VL, numbered from residue 1).
Values are apparent Kd, the geometric mean of the replicates that gave a signal; lower means stronger binding.
"nd" means that the variant was in the library but no mating with the target was seen in any replicate; the authors take this as a sign of poor binding, and no number exists.
As a blank, each scFv also met three strains without target: over library AAYL52, 28% of these pairings were detected, typically at 8.2 µM and seldom below 800 nM.
In this assay the parent's reference entry averaged 200 nM; its copy inside this library read 180 nM.

Variant EGDSLRYYYAN / FKNNAKS / SSRDSSGFQVF showed 830 nM (1 of 3 replicates).
Variant EGDSLRYYYDN / QKNNRPS / SSRDSSGFKVF showed 5.2 µM (1 of 3 replicates).
Variant EHDSLRYYYAN / FKNNRPS / SSRDGSGFQVF showed 47 µM (1 of 3 replicates).
Variant EGDDLRYYYAN / VKNPRPS / SSRDSSGFQVF showed 9.4 µM (3 of 3 replicates).
Variant EGDSLRYYYAN / KKNRRLS / SSRDSSGFQVF showed 46 µM (2 of 3 replicates).
Variant EGDSLRYYYAN / WKNIRPS / SQRDSSGFQVF showed 9.2 µM (1 of 3 replicates).
Variant EGDSQRYYYAN / PKNNRPS / SSRDSSKFQVF showed 9.5 µM (1 of 3 replicates).
Variant EGDSLRYYYAN / YKNNRPS / SGRDHSGFQVF showed 4.5 µM (1 of 3 replicates).
Variant NGDSLRYYYAN / DKNNRPS / SSRDSSGAQVF showed 130 nM (3 of 3 replicates).
Variant EGDSLRYYYAN / WPNNRRS / SSRDSSGFQVF showed 8.1 µM (2 of 3 replicates).
Variant EGDSLRYYYAN / LKNNRPS / SSDDSSGFQVA showed 3.8 µM (1 of 3 replicates).
Variant EGDSLRSYYAN / NKNNCPS / SSRDSSGFQVF showed 14 µM (3 of 3 replicates).
Variant EGDSLRYYYAN / DKNNRDN / SSRDSSGFQVF showed 1.6 µM (3 of 3 replicates).
Variant EGDSIRYYYAN / PKNNRPP / SSRDSSGFQVF showed 45 µM (2 of 3 replicates).
Variant EGDSLRYYYAT / PKNNRPS / SSRDSSMFQVF showed 4.1 µM (1 of 3 replicates).
Variant EGDSLRYYYAN / CKNNRPS / SSRDHSGFQVF showed 18 µM (1 of 3 replicates).
Variant EGDSLRYYYAN / AKNNRPI / SSRDSSGFQVW showed 10 µM (2 of 3 replicates).
Variant EGDSLRYEYAN / RKNNRPY / SSRDSSGFQVF showed 700 nM (2 of 3 replicates).
Variant EGDSLRYYYAN / QWNNRPS / SSADSSGFQVF showed 4.7 µM (2 of 3 replicates).
Variant EGDSLRYYYAN / FKNTRPS / SSRDSSGFHVF showed 5.8 µM (1 of 3 replicates).
Variant EGDSLRYYYAN / QKNNRPS / SYRDISGFQVF showed nd (0 of 3 replicates).
Variant EGDSLRYYYAN / TENNRPS / SSLDSSGFQVF showed nd (0 of 3 replicates).
Variant EGDSSRYYYAN / DKNNRPS / SSRDSSGCQVF showed nd (0 of 3 replicates).
Variant EGDSLRYYYAN / LKNNFPS / SIRDSSGFQVF showed 84 µM (3 of 3 replicates).
Variant EGDSLRYYYAN / LKNNRPS / SSRDSSGFQVF showed 5.3 µM (1 of 3 replicates).
Variant EGDSLRYTYAN / MKNNRPS / RSRDSSGFQVF showed nd (0 of 3 replicates).
Variant EGDSLRYYYAN / RKNNRPI / SSRDSSGFCVF showed 51 µM (2 of 3 replicates).
Variant EGDSLRYYYAN / WKNNRPS / SSRDSAGFQMF showed 6.5 µM (2 of 3 replicates).
Variant EGDSLRYYYAS / CKNNYPS / SSRDSSGFQVF showed 11 µM (1 of 3 replicates).
Variant EGDSLREYYAN / WTNNRPS / SSRDSSGFQVF showed 11 µM (3 of 3 replicates).
Variant EFDSLRYYYAN / LKNNRPS / SSRDSSAFQVF showed 27 µM (2 of 3 replicates).
Variant EGDSLRYYYAN / FKNNRPS / SSRDCSPFQVF showed 6.6 µM (2 of 3 replicates).
Variant EGDSLRGYYAN / WKNNRPS / SSRDSSGFQVF showed 2.7 µM (3 of 3 replicates).
Variant EGDSLRYYYAN / EKKNRPS / SSRDSSGRQVF showed 3.1 µM (2 of 3 replicates).
Variant EGDSLRYYYAN / FKNNRPS / SYRDSHGFQVF showed nd (0 of 3 replicates).
Variant EGDSLRYYYAN / EKNNRPS / SQRDSSGFQVF showed 2.9 µM (2 of 3 replicates).
Variant EGDSLRYYYAN / LKNWRPS / ISRDSSGFQVF showed 17 µM (1 of 3 replicates).
Variant EGLILRYYYAN / MKNNRPS / SSRDSSGFQVF showed 52 µM (1 of 3 replicates).
Variant EQDSLRYYGAN / QKNNRPS / SSRDSSGFQVF showed 87 µM (1 of 3 replicates).
Variant EGDSLRYYYAN / TKNNVPS / SSRDSSGFQVF showed 46 µM (1 of 3 replicates).
Variant EGDSLRYYYAN / MKNNRPS / SSRDGSGFQEF showed 8.9 µM (3 of 3 replicates).

Top 7 of the variants detected in all replicates, tightest first:

{"CDR-L1": "NGDSLRYYYAN", "CDR-L2": "DKNNRPS", "CDR-L3": "SSRDSSGAQVF", "apparent Kd": "130 nM", "replicates with signal": "3/3"}
{"CDR-L1": "EGDSLRYYYAN", "CDR-L2": "DKNNRDN", "CDR-L3": "SSRDSSGFQVF", "apparent Kd": "1.6 µM", "replicates with signal": "3/3"}
{"CDR-L1": "EGDSLRGYYAN", "CDR-L2": "WKNNRPS", "CDR-L3": "SSRDSSGFQVF", "apparent Kd": "2.7 µM", "replicates with signal": "3/3"}
{"CDR-L1": "EGDSLRYYYAN", "CDR-L2": "MKNNRPS", "CDR-L3": "SSRDGSGFQEF", "apparent Kd": "8.9 µM", "replicates with signal": "3/3"}
{"CDR-L1": "EGDDLRYYYAN", "CDR-L2": "VKNPRPS", "CDR-L3": "SSRDSSGFQVF", "apparent Kd": "9.4 µM", "replicates with signal": "3/3"}
{"CDR-L1": "EGDSLREYYAN", "CDR-L2": "WTNNRPS", "CDR-L3": "SSRDSSGFQVF", "apparent Kd": "11 µM", "replicates with signal": "3/3"}
{"CDR-L1": "EGDSLRSYYAN", "CDR-L2": "NKNNCPS", "CDR-L3": "SSRDSSGFQVF", "apparent Kd": "14 µM", "replicates with signal": "3/3"}

Values reported by Engelhart et al. 2022, doi:10.1038/s41597-022-01779-4 (FLAb copy).